tested on: PBMC; test: Immunomodulatory activity in human PBMC assessed as inhibition of phytohemagglutinin-induced T-cell proliferation after 72 hrs by [3H]thymidine incorporation assay; assay type: functional, cell-based

Compound	Activity
CC(C)=CCc1c(O)c(CC=C(C)C)c2oc3c(O)cc(O)cc3c(=O)c2c1O [STAUDTIIXANTHONE A]	Dose-dependent effect
CC(C)=CCc1c2c(c(O)c3c(=O)c4cc(O)cc(O)c4oc13)C=CC(C)(C)O2 [STAUDTIIXANTHONE B]	Dose-dependent effect
CC(C)=CCc1c2c(c3oc4c(O)cc(O)cc4c(=O)c3c1O)C=CC(C)(C)O2 [STAUDTIIXANTHONE C]	Dose-dependent effect
COc1cc2oc3c4c(cc(O)c3c(=O)c2c2c1OC(C)(C)CC2)OC(C)(C)CC4 [STAUDTIIXANTHONE D]	Dose-dependent effect

From ChEMBL document CHEMBL1153469, “Antimicrobial and immunomodulatory properties of prenylated xanthones from twigs of Garcinia staudtii” (Bioorg Med Chem, 2009)
